How the values were obtained:
[1] = Stability: hydrolyzed amidine content by HPLC after 57° C. / 75% humidity; format: physicochemical; details: 75% room humidity, percentage of the main peak
Method: To assess the thermal and hydrolytic stability of the salt, tests known to those of skill in the art are performed.
The sample solvent was methanol and a mobile phase modifier of 0.1% trifluoroacetic acid was employed. Data were collected after 3, 6 and 10 days except data for the propionate was collected at 0, 3, and 8 days. […] All other impurity peaks were disregarded in the calculation

[2] = Secondary screen: crystallinity (XRPD); format: physicochemical
Method: X-Ray Powder Diffraction patterns were collected on a Siemens D5000 diffractometer using CuKα radiation (40 kV, 40 mA), […], automatic divergence and receiving slits, a graphite secondary monochromator and a scintillation counter.
Samples run under ambient conditions were prepared as flat plate specimens using powder. Approximately 35 mg of the sample was gently packed into a cavity cut into polished, zero-background (510) silicon wafer. The sample was rotated in its own plane during analysis. The details of the data collection are given for the method in Table 2 below: […]

[3] = at 100° C.
[4] = Gravimetric vapour sorption (GVS) water sorption; format: physicochemical; details: 25° C., 0-90% RH, listed as salt of Formula II
Method: All samples were run on a Hiden IGASorp moisture sorption analyzer running CFRSorp software. Sample sizes were typically 10 mg. A moisture adsorption desorption isotherm was performed as outlined below (2 scans giving 1 complete cycle). All samples were loaded/unloaded at typical room humidity and temperature (40% RH, 25° C.). All samples were analyzed by XRPD post GVS analysis. The standard isotherm was performed at 25° C. at 10% RH intervals over a 0-90% RH range.

- Hydrolyzed Amidine Content (3 days) ([1]; 3 days): 0.0%
- Hydrolyzed Amidine Content (6 days) ([1]; 6 days): 0.0%
- Hydrolyzed Amidine Content (10 days) ([1]; 10 days): 0.0%
- crystallinity (in words) [2]: excellent crystallinity
- Crystallinity ([2]; secondary screen, Table 5): crystalline
- weight loss (TGA) [3]: 0.62%
- Water Sorption (reversibility, level of uptake) [4]: reversible
SMILES: COc1ccc(NC(=O)c2ccc(C(=N)N(C)C)cc2)c(C(=O)Nc2ccc(Cl)cn2)c1 [Maleate]

Reference: US9555023B2, “Pharmaceutical salts and polymorphs of a factor Xa inhibitor” (Millennium Pharmaceuticals, Inc., priority 2005, dated 2017)
